## Apparent affinities of Ab-14 variants for a coronavirus HR2 peptide

The measurements come from Engelhart et al. 2022 (doi:10.1038/s41597-022-01779-4) through the FLAb antibody collection.

All variants were tested on one target, the spike HR2 peptide PDVDLGDISGINAS (SARS-CoV-2).

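AAYL50 was designed without a model: most single CDR substitutions and a random sample of double and triple ones. AlphaSeq pools MATa yeast showing the antibodies with MATalpha yeast showing the peptide. Binding brings cells together so that they mate, and sequencing counts the barcode pairs among the diploids. Read counts were normalised to the haploid input and turned into Kd by a linear fit to BCL2-family pairs of known affinity, for each replicate. Mating was done three times.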

Parent: Ab-14, a human scFv built as VH, the linker GGGGSGGGGSGGGGS, VL. Only the CDRs of the light chain vary.
VH: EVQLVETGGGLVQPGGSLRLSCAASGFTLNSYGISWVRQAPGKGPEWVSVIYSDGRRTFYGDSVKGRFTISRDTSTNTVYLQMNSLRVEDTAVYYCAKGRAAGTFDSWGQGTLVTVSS
VL: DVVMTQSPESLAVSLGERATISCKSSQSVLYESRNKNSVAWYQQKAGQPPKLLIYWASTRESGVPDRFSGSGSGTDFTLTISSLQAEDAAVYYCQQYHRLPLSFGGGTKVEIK

Substitutions are numbered in sequence along the VL above, starting at 1 (not Kabat). All variants listed here change L100 of the VL, counted from its first residue. Each Kd is an estimate from the mating assay, the geometric mean of the replicates in which the pair was seen; lower is stronger. An entry "no signal" has no value in the source: the pair was not observed among the diploids in any replicate. This suggests poor binding but is not conclusive. Three control strains display no target. For library AAYL50, 18% of the pairings with them gave a signal, with a median of 15 µM and one signal in twenty below 970 nM, so weak values seen in few replicates may be background. Also given: how often the same scFv was detected with the empty control strains.

* Y31Q/N35L/L100K -> 2.7 nM (3 of 3 replicates; controls 1 of 9)
* S26Q/R60E/L100S -> 25 µM (2 of 3 replicates; controls 4 of 9)
* N37F/L100R/P101F -> no signal (0 of 3 replicates; controls 1 of 9)
* Q27C/A57I/L100A -> 160 µM (2 of 3 replicates; controls 1 of 9)
* S26F/L100C/P101L -> 36 nM (3 of 3 replicates; controls 1 of 9)
* S26G/T59Y/L100R -> 7.9 µM (1 of 3 replicates; controls 2 of 9)
* L100M/P101H/L102Q -> 980 nM (3 of 3 replicates; controls 3 of 9)
* Q27H/Y97M/L100I -> 16 µM (2 of 3 replicates; controls 6 of 9)
* N35K/L100N/P101S -> no signal (0 of 3 replicates; controls 0 of 9)
* Y31V/Q96E/L100I -> no signal (0 of 3 replicates; controls 3 of 9)
* E61G/R99A/L100N -> no signal (0 of 3 replicates; controls 0 of 9)
* V39W/A57L/L100K -> 68 µM (1 of 3 replicates; controls 0 of 9)
* S28N/W56I/L100T -> no signal (0 of 3 replicates; controls 0 of 9)
* Q27G/V39W/L100S -> 19 µM (2 of 3 replicates; controls 7 of 9)
* N37G/T59Q/L100T -> 2.7 µM (1 of 3 replicates; controls 1 of 9)
* S28L/R99N/L100P -> no signal (0 of 3 replicates; controls 0 of 9)
* R34L/N35W/L100A -> 140 nM (3 of 3 replicates; controls 1 of 9)
* R34E/A40H/L100P -> no signal (0 of 3 replicates; controls 0 of 9)
* W56D/L100C -> 12 µM (3 of 3 replicates; controls 3 of 9)
* N37E/E61T/L100F -> no signal (0 of 3 replicates; controls 1 of 9)
* S25M/S38M/L100G -> 130 nM (3 of 3 replicates; controls 1 of 9)
* Q95V/L100H -> no signal (0 of 3 replicates; controls 1 of 9)
* A57Q/Q95K/L100R -> 200 µM (1 of 3 replicates; controls 2 of 9)
* Q27H/Q95H/L100N -> 2.8 µM (3 of 3 replicates; controls 3 of 9)
* N35L/R60A/L100S -> 79 µM (1 of 3 replicates; controls 5 of 9)
* S33W/L100G -> 2.7 µM (1 of 3 replicates; controls 3 of 9)
* L30F/S38M/L100M -> 710 nM (3 of 3 replicates; controls 2 of 9)
* V39Q/Q95E/L100V -> 9.2 µM (1 of 3 replicates; controls 0 of 9)
* T59G/L100K/P101G -> no signal (0 of 3 replicates; controls 2 of 9)
* K36C/S38L/L100E -> no signal (0 of 3 replicates; controls 1 of 9)
* S26R/Q96I/L100A -> 230 nM (3 of 3 replicates; controls 0 of 9)
* A40F/L100D/P101L -> 1.6 µM (2 of 3 replicates; controls 2 of 9)
* S25W/H98C/L100S -> 6.3 µM (1 of 3 replicates; controls 1 of 9)
* Q27D/H98K/L100S -> no signal (0 of 3 replicates; controls 3 of 9)
* S26D/S62F/L100I -> 160 nM (3 of 3 replicates; controls 1 of 9)
* L30V/A40K/L100P -> 32 µM (1 of 3 replicates; controls 1 of 9)
* E32W/R34G/L100Q -> 370 µM (3 of 3 replicates; controls 4 of 9)
* L100H/P101M -> 6.2 nM (3 of 3 replicates; controls 0 of 9)

For reference, the parent read 4.4 nM as the reference entry and 48 nM as a member of this library.